pIC50: −log10 of the molar value.
Key:
human PDGFR-β(wt) = human PDGFR-β(wt) (Homo sapiens, UniProt P09619); assay: Enzyme inhibitory activity, ADP-Glo kinase assay, PDGFR-β(wt); conditions: read-out: PDGFR-β (IC50 class)
Protocol: In order to evaluate the inhibitory activity of the compounds synthesized according to the above examples on PDGFR-α(wt), PDGFR-β(wt), c-KIT(wt), and c-KIT(D816V) kinases, the following method was performed. The compounds of examples were reacted with purified human PDGFR-α(wt) (Signalchem #P12-18G) enzyme, human PDGFR-β(wt) (Signalchem #P13-11G) enzyme, human c-KIT(wt) (Signalchem #K06-11BG) enzyme, human c-KIT(D816V) (Signalchem #C06-12LG) enzyme, and the enzyme inhibitory abilities were evaluated by the following method.
The reaction buffer was used as a composition of 40 mM Tris-HCl pH7.4, 20 mM MgCl2, 0.5 mg/ml BSA, 50 μM DTT, and the reactions of all the tests were carried out on the reaction buffer. The compound was diluted in 12 steps using a serial dilution method from a 10 mM DMSO stock, and the enzyme activity was measured at a final compound concentration of 10˜0.00005645 μM. During the test, the enzyme activity was confirmed using in vitro ADP-Glo™ kinase assay (Promega) after reacting with the proper concentration of human PDGFR-α(wt) enzyme, human PDGFR-β(wt), human c-KIT(wt) enzyme, and human c-KIT(D816V) enzyme with purified ATP and enzyme substrate at 25° C. for 1˜2 hours. […]

Protein sequences, listed by entry. Tags and fused reporters are not part of them. Residues count along the entry.
UniProt P09619, 33-1106 limits assumed: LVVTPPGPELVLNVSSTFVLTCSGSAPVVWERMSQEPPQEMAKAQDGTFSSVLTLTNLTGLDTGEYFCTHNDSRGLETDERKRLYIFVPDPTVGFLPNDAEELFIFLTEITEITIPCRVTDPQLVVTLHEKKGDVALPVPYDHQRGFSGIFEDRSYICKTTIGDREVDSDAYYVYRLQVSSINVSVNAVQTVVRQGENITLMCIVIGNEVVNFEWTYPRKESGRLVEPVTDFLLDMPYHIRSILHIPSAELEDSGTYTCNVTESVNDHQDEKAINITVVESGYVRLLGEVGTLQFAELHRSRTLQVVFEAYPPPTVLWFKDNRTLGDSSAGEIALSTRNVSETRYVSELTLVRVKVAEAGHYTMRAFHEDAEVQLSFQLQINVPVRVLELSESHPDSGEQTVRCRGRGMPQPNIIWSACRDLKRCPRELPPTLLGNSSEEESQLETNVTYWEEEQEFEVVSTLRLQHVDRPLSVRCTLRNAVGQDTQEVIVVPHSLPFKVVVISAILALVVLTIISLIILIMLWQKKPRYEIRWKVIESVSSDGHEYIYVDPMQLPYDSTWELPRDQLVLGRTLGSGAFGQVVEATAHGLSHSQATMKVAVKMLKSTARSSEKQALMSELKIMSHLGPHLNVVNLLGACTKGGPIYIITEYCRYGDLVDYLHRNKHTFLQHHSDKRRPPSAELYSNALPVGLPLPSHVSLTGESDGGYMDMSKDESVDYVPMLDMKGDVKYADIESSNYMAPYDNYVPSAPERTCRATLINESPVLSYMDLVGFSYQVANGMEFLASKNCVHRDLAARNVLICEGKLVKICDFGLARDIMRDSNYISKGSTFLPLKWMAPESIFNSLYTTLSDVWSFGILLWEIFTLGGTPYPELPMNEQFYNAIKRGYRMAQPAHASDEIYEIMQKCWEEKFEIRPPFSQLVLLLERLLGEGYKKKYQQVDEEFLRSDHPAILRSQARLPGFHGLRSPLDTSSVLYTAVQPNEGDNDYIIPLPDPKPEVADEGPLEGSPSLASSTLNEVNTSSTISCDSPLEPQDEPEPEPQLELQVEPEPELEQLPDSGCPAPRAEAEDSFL

Ba/F3-TEL-PDGFβ(WT) = assay: Proliferation inhibitory activity on Ba/F3 cell (CellTiter-Glo, 72 hours), PDGFR-β; conditions: read-out: Ba/F3 (nM) Tel-PDGFRβ (GI50 class)
Protocol: (§1) Ba/F3-TEL-PDGFRα(WT), Ba/F3-TEL-PDGFβ(WT), Ba/F3-c-KIT(D816V) (Kyinno, #KC-0138), c-KIT V560G/D816V, c-KIT D814Y were seeded at 3×10^3/100 μl/well in a clear bottom white 96-well plate. A culture solution containing compounds of 12 concentrations (0.00001-2 mM) serially diluted in 3 folds and the DMSO control group was added at 0.5 μl/well each to a final concentration of 0.00005-10 μM, and then incubated in a CO2 incubator at 37° C. for 72 hours. After 72 hours, the plate treated with the compound was taken out, CellTiter-Glo® Assay (Promega) solution was treated with 100 μl/well, followed by mixing well. After mixing well for about 10 minutes at room temperature, […] was measured using a microplate reader. The data were presented as percentages in proportion to treated cells based on the vehicle, GI50 (nM) values were calculated using GraphPad Prism 8.3.0 (GraphPad software Inc., San Diego).
(§2) The inhibitory activities of Ba/F3 expressing PDGFR-α, PDGFR-β, c-KIT(D816V), c-KIT V560G/D816V, and c-KIT D814Y measured as described above were measured and shown in Table 7 below (A: GI50≤200 nM; B: 200 nM<GI50≤500 nM; C: GI50>500 nM).

c-KIT V560G/D816V = assay: Proliferation inhibitory activity on Ba/F3 cell (CellTiter-Glo, 72 hours), c-KIT V560G/D816V; conditions: read-out: Cell (nM) c-KIT V560G/D816V (GI50 class), c-KIT V560G/D816V cells
Protocol: as §1, §2

COc1cc2c(-c3ccc(NC(=O)Cc4ccc(C(F)(F)F)cc4)cc3)ncnc2cc1OCC1CCN(C(C)C)CC1
pIC50 (human PDGFR-β(wt)): > 7.30 | GI50 (Ba/F3-TEL-PDGFβ(WT)): < 200 nM | GI50 (c-KIT V560G/D816V): < 200 nM
